Assay [1] deals with Breast cancer cell line. As to the kind of experiment: Concentration that reduces difference in reversal of [3H]VBL accumulation between MDA-435/LCC6 and MDA-435/LCC6-MDRI cells by 50%. Format: functional, cell-based. The note with it: Homo sapiens.
Assay [2] deals with ATP-dependent translocase ABCB1 (Homo sapiens, UniProt P08183). As to the kind of experiment: TP_TRANSPORTER: reversal of Vinblastine accumulation (Vinblastine: 0.005 uM) in MDA435/LCC6 MDR1 cells. Format: functional, cell-based, MDA-MB-435/LCC6 MDR1.

By UniProt entry, the sequences of proteins in these tests, tags left out.
UniProt P08183, whole entry: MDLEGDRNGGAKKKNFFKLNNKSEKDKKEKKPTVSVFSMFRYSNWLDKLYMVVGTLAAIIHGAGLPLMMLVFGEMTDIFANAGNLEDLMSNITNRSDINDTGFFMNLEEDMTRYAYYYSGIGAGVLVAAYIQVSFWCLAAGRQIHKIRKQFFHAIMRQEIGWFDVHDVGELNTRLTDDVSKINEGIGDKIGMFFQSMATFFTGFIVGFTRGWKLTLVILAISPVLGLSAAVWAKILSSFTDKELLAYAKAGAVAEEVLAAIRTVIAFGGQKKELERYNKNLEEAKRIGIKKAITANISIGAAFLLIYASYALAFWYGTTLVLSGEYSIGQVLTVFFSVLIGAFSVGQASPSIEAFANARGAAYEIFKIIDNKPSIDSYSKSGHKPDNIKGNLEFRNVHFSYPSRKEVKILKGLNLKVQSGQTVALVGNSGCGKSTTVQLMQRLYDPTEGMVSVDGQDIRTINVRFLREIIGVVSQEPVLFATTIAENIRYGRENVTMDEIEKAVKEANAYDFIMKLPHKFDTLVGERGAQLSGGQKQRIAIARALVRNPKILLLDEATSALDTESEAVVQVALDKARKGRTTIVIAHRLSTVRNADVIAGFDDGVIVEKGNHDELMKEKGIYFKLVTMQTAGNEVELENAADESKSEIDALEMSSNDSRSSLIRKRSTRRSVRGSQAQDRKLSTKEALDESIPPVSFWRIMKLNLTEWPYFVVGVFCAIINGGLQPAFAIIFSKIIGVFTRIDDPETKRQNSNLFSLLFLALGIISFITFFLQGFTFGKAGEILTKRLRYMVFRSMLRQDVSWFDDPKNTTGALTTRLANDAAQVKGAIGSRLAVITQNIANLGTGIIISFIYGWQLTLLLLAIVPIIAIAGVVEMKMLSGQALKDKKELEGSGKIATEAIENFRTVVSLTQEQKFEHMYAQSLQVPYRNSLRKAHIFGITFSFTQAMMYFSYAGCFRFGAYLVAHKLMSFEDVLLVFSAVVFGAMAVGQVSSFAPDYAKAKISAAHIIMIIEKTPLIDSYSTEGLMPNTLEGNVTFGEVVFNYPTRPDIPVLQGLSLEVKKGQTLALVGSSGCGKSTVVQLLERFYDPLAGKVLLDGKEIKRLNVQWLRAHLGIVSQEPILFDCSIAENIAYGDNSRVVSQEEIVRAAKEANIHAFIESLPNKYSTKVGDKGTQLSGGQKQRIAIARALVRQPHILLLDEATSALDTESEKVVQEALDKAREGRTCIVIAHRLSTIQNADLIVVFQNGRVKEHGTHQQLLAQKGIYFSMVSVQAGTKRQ

2 compounds from ChEMBL document CHEMBL1135805, “C-7 analogues of progesterone as potent inhibitors of the P-glycoprotein efflux pump” (J Med Chem, 2002) can be followed below.

What is called EC50 is the concentration at which the effect is half-maximal.

Turning to `C/C=C/C[C@@H](C)[C@@H](O)[C@H]1C(=O)N[C@@H](CC)C(=O)N(C)CC(=O)N(C)[C@@H](CC(C)C)C(=O)N[C@@H](C(C)C)C(=O)N(C)[C@@H](CC(C)C)C(=O)N[C@@H](C)C(=O)N[C@H](C)C(=O)N(C)[C@@H](CC(C)C)C(=O)N(C)[C@@H](CC(C)C)C(=O)N(C)[C@@H](C(C)C)C(=O)N1C` [CYCLOSPORINE], the EC50 in assay [1] was determined as 0.6 µM. In the case of `CC(=O)[C@H]1CC[C@H]2[C@@H]3CCC4=CC(=O)CC[C@]4(C)[C@H]3CC[C@]12C` [PROGESTERONE], in assay [2], the EC50 worked out at 21.2 µM.
